This assay deals with Sodium-dependent serotonin transporter (Homo sapiens, UniProt P31645). As to the kind of experiment: Inhibition of serotonin transporter (unknown origin) assessed as suppression of synaptosomal uptake of serotonin.

Sequences of proteins named here, by UniProt entry; tags and fusion partners are left off.
UniProt P31645, whole entry: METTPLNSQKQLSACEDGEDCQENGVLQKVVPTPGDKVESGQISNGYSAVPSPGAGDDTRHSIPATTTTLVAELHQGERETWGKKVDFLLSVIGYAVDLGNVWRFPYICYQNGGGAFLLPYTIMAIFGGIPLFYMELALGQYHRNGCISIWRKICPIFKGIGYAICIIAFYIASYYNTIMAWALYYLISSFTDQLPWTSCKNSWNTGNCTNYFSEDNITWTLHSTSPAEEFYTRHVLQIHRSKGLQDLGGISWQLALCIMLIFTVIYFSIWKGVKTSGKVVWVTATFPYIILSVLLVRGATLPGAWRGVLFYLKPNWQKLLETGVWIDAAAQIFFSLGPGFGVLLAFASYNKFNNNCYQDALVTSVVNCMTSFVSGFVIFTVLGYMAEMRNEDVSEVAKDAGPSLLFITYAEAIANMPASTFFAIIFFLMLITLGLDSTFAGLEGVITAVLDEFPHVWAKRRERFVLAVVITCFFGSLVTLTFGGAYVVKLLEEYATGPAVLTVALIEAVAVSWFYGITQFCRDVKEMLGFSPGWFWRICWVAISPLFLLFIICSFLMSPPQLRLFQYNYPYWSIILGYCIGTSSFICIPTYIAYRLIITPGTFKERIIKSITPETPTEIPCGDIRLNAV

For the compound `CC(C)=CCC[C@]1(C)[C@@H](CC=C(C)C)C[C@]2(CC=C(C)C)C(=O)C(CC=C(C)C)=C(O)[C@@]1(C(=O)C(C)C)C2=O`, the IC50 came to 2000 nM.

For orientation: IC50 means the point on the concentration scale where inhibition reaches its midpoint.

These data come from ChEMBL document CHEMBL3856218, “Polycyclic Polyprenylated Acylphloroglucinol Congeners from Hypericum scabrum” (J Nat Prod, 2016).
